Data from US5104814A, “Assay kit and methods for neuroleptic drugs” (Schering Corporation, priority 1990, dated 1992).

The chains behind the UniProt entries cited, without tags or fusion partners.
UniProt P18901, whole entry: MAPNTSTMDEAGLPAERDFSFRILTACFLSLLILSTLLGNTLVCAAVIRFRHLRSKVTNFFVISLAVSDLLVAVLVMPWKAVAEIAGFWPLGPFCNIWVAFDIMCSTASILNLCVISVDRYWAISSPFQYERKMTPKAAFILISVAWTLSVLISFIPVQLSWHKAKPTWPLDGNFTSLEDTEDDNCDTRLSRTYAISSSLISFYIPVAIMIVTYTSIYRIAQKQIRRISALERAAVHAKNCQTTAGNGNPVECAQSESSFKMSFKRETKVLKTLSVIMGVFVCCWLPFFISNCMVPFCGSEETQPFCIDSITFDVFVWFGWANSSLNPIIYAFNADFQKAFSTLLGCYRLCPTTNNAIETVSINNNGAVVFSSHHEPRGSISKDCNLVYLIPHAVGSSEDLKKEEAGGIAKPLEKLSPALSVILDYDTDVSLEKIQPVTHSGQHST

Target: T1, D-1 receptor (Rattus norvegicus, UniProt P18901)
T1 construct: Striatal tissue was excised, pooled, and homogenized; from tissue; host or cells: striatum of male Sprague-Dawley rats, homogenized and washed by centrifugation
Assay: Saturation binding of [N-methyl-^3 H] Compound in rat striatum
Conditions: ligand concentration 1.0 nM
Procedure: Male Sprague-Dawley rats (200 to 250 g) from Charles River Breeding Laboratories, Mass. were used to obtain brain tissue. The rats were decapitated, their brains removed and placed on ice. Striatal tissue was excised, pooled, and homogenized (Brinkman Polytron, 10 sec) in 100 volumes (v/v) of ice cold 50mM Tris-HCl buffer, pH 7.4 (at 25° C.). The homogenate was centrifuged at 20,000×g for 10 min. The resultant pellet was rehomogenized in Tris-HCl buffer and centrifuged again. The final pellet was resuspended in 50 mM Tris-HCl buffer pH 7.4 containing 120 mM NaCl, 5 mM KCL, 2 mM CaCl2, and 1 mM MgCl2.
Polypropylene incubation tubes (in triplicate) received 100 μl of various concentrations of drugs dissolved or suspended in 0.05 M Tris-HCl buffer, pH 7.4, containing 4 mg/ml methylcellulose, 100 μl of a solution of [N-methyl-^3 H] Compound in Tris-HCl buffer (final reaction mixture concentration=1.0 nM) and 800 μl of tissue suspension (3 mg/assay). At a ligand concentration of approximately 1.0 nM, binding was found in preliminary experiments to be a linear function of tissue concentration up to 8 mg per assay. […] The filters were monitored for radioactivity through liquid scintillation counting in Scintosol (Isolab, Inc.).
When binding was evaluated as a function of radioligand concentration, saturation of specific sites was clearly achieved while non-specific binding was minimal.

## [3H]C([3H])([3H])N1CCc2cc(Cl)c(O)cc2C2c3ccccc3CCC21 (stereo not shown) [[N-methyl-^3 H] Compound]
  non-specific binding as share of total binding: 4-8%
